Molecular target: T1, PCSK9-V5 (full-length human PCSK9 with C-terminal V5 tag) (human, UniProt Q8NBP7)
T1 construct: Used as conditioned medium of CHO-K1 cells (Far Western, pull-down) or co-expressed in cells (co-IP); The background says PCSK9 is secreted as a prosegment-PCSK9 heterodimer; also called full-length (FL) PCSK9-V5; native PCSK9; not shown: C-terminal V5 tag
Test: Far Western blot of HEK293 lysates

binding result: binds
B1: AnxA2 Δ2-24 (N-terminal deletant, untagged) (other)
chain: MGSVKAYTNFDAERDALNIETAIKTKGVDEVTIVNILTNRSNAQRQDIAFAYQRRTKKELASALKSALSGHLETVILGLLKTPAQYDASELKASMKGLGTDEDSLIEIICSRTNQELQEINRVYKEMYKTDLEKDIISDTSGDFRKLMVALAKGRRAEDGSVIDYELIDQDARDLYDAGVKRKGTDVPKWISIMTERSVPHLQKVFDRYKSYSPYDMLESIRKEVKGDLENAFLNLVQCIQNKPLYFADRLYDSMKGKGTRDKVLIRIMVSRSEVDMLKIRSEFKRKYGKSLYYYIQQDTKGDYQKALLYLCGGDD

Source: patent US20110118181A1 (INSTITUT DE RECHERHES CLINIQUES DE MONTREAL, published 2011)
